How the values were obtained:
[1] = test system: osteosarcoma cell line U2OS; experiment: Cell proliferation assay (WST-8); assay type: cell-based, human; conditions: 10 nM kinase inhibitors, 10 μg/mL antibodies
Protocol: (§1) Cell proliferation was determined using an ELISA plate reader and the WST-8 kit (Dojindo technologies) following the manufacturer's instructions and using the formula: % survival rate=(Sample-Background)/(Negative control-Background). Lapatinib (MSKCC pharmacy) was ground using a mortar and pestle and suspended in DMSO as previously described. To determine statistical significance, the results were analyzed using one-way ANOVA using Prism 6.0.
(§2) For cell proliferation assays, 5,000 tumor cells were plated using RPMI-1640 supplemented with 10% FBS in a 96 well plate for 36 hours before being treated with lapatinib or the antibodies at the specified concentrations. Cell proliferation was determined using an ELISA plate reader and the WST-8 kit (Dojindo technologies) following the manufacturer's instructions and using the formula: % survival rate=(Sample-Background)/(Negative control-Background). Lapatinib (Memorial Sloan Kettering Cancer Center pharmacy) was ground using a mortar and pestle and suspended in DMSO as previously described (Chen et al., 2012, Molecular cancer therapeutics 11:660-669). To determine statistical significance, the results were analyzed using one-way ANOVA using Prism 6.0.
(§3) For tumor cell proliferation, 5,000 tumor cells were plated using RPMI-1640 supplemented with 10%, fetal bovine serum (“FBS”) in a 96 well plate for 36 hours before being treated with—kinase inhibitors or the antibodies at the specified concentration. Cell proliferation was determined using the cell counting WST-8 kit (Dojindo technologies) following the manufacturer's instructions and using the formula: % survival rate=(Sample-Background)(Negative control-Background). Lapatinib was ground using a mortar and pestle and suspended in DMSO as previously described (Chen et al., Molecular cancer therapeutics 2012; 11:660-9). To determine statistical significance, the results were analyzed using one-way ANOVA using Prism 6.0.

[2] = test system: cervical carcinoma HeLa cells; experiment: Cell proliferation assay (WST-8); assay type: cell-based, human; conditions: 10 nM kinase inhibitors, 10 μg/mL antibodies
Protocol: as §1, §2, §3

SCCHN cell line PCI-30 = experiment: Cell proliferation assay (WST-8); assay type: cell-based, human; conditions: 10 nM kinase inhibitors, 10 μg/mL antibodies
Protocol: as §1, §2, §3

[3] = test system: HER2 positive breast cancer; conditions: patients with HER2 positive breast cancer; cited from earlier work

Substance	sensitivity in proliferation assay [1]	sensitivity in proliferation assay [2]	sensitivity in proliferation assay ([2]; listed as Cetuximab)	sensitivity in proliferation assay (SCCHN cell line PCI-30)	patients initially responding [3]
cetuximab	resistant	resistant	pan-resistant	resistant	
trastuzumab					Less than 35%

Reference: patent US12630632B2, “Bispecific HER2 and CD3 binding molecules” (Memorial Sloan Kettering Cancer Center, priority 2017, dated 2026)
